From PubChem BioAssay AID1285 (Columbia University Molecular Screening Center, 2008) come the findings set out here.

Structures are written as SMILES. The entries are a selection whose mix differs from that of the whole data set. Calls of active or inactive are those of the source.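 Rule for the calls: active = inhibition above a set limit, derived from the sample mean plus 3 SD (cut at about 45% in these data); inconclusive = one replicate passes the limit while the other fails; inactive = the rest.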

The experiment can be described thus: APP 5'UTR translational reporter suppression – APP 5'UTR luciferase, SH-SY5Y cells, primary screen (AID 1285). Particulars: SH-SY5Y APP 5'UTR-luciferase reporter, luminescence; at 2 µM; stronger effect = higher value. For orientation: In a reporter assay the amount or activity of a reporter protein is the signal.
As for `CCOC(=O)c1ccc(NP(C)(=O)Oc2ccc(Cl)cc2)cc1` (stereo not drawn), the inhibition (usually the drop in the measured response relative to a control, in per cent) was inactive: -3.8%. The result for `CP(=O)(OC12CC3CC(CC(C3)C1)C2)OC12CC3CC(CC(C3)C1)C2` reads inactive: 10.3%. For `CCN(CC)CC(O)COC(=O)C(O)(c1ccccc1)C1CCCCC1` (stereo not drawn) the value was inactive: 1.8%; for `COc1ccc(OP(C)(=O)Nc2ccc(Br)cc2)cc1` (stereo not drawn), inactive: -10.9%. For `COc1ccccc1OP(C)(=O)Nc1c(C)n(C)n(-c2ccccc2)c1=O` (stereo not drawn) the value was inactive: -4.2%; for `CP(=O)(Oc1ccccc1)N1CCOC1=O` (stereo not drawn), inactive: -1.7%. In the case of `CCc1ccc(OP(C)(=O)Nc2cccnc2)cc1` (stereo not drawn), the inhibition was inactive: -14.2%. For `CC(C)(C)c1ccc(OP(C)(=O)O)cc1` the value was inactive: 8.4%; for `COc1ccccc1OP(C)(=O)Nc1ccccc1Br` (stereo not drawn), inactive: -0.6%; for `CP(=O)(Nc1ccc(Cl)cc1)Oc1ccc(F)cc1` (stereo not drawn), inactive: 1.9%. In the case of `CN(C)C(=O)c1c([N+](=O)[O-])cc([N+](=O)[O-])cc1[N+](=O)[O-]`, the inhibition was inactive: 7.9%. The result for `COc1ccc(OP(C)(=O)Nc2ccccn2)cc1` (stereo not drawn) reads inactive: 2.4%.

For the compound `CN(C)CCOC(=O)C(O)(c1ccccc1)C1CCCC1` (stereo not drawn), the inhibition was inactive: 9.2%. For the compound `Cc1c(NP(C)(=O)Oc2ccc(C(C)C)cc2)c(=O)n(-c2ccccc2)n1C` (stereo not drawn), the inhibition is inactive: -5.5%.

For `CP(=O)(Nc1ccccn1)Oc1ccccc1` (stereo not drawn), the inhibition was inactive: 8.1%.

In the case of `COc1ccccc1OP(C)(=O)Nc1ccc(C)cc1C` (stereo not drawn), the inhibition is inactive: -10.3%.

Consider `CCc1ccc(OP(C)(=O)O)cc1`, for which the inhibition was inactive: 7.1%. In the case of `Cc1cc(C)cc(OP(C)(=O)Nc2cccc(C(F)(F)F)c2)c1` (stereo not drawn), the inhibition is inactive: 15.2%. The result for `COc1ccccc1OP(C)(=O)Nc1ccc(C)c(C)c1` (stereo not drawn) reads inactive: -21.4%; that for `COc1ccc(OP(C)(=O)Nc2ccccc2Br)cc1` (stereo not drawn), inactive: -2%.

`Cc1nc2ccc3ccccc3c2o1.O=[N+]([O-])c1cc([N+](=O)[O-])c(O)c([N+](=O)[O-])c1`: the inhibition is inactive: -6.7%.

On to `CP(=O)(OCCOc1ccccc1)OCCOc1ccccc1`, for which the inhibition is inactive: 7.1%. For `CP(=O)(Nc1ccc(Cl)cc1Cl)Oc1ccccc1` (stereo not drawn), the inhibition is inactive: -2.4%. For `CCOC(=O)c1ccc(NP(C)(=O)Oc2ccc(F)cc2)cc1` (stereo not drawn) the value was inactive: -18.9%.

With `COc1ccc(OP(C)(=O)Nc2ccc(SC(F)(F)F)cc2)cc1` (stereo not drawn), the inhibition was inactive: -13.5%. `CCN(CC)CCCOC(=O)C(O)(c1ccccc1)C1CCCCC1` (stereo not drawn): the inhibition is inactive: 8.8%.

As for `CP(=O)(Nc1ccccc1)Oc1ccc(F)cc1` (stereo not drawn), the inhibition was inactive: 7%. The result for `CP(=O)(Nc1ccccc1F)Oc1ccccc1` (stereo not drawn) reads inactive: 3.2%; that for `CC(C)c1ccc(OP(C)(=O)Nc2ccc(SC(F)(F)F)cc2)cc1` (stereo not drawn), inactive: -11%; that for `O=C(OCCN1CCN(CCOCc2ccccc2)CC1)C(O)(c1ccccc1)c1ccccc1`, inactive: 6.3%.

For the compound `CP(=O)(Nc1ccc2c(c1)OCCO2)Oc1ccccc1` (stereo not drawn), the inhibition is inactive: 5.7%. The result for `Cc1ccccc1NP(C)(=O)Nc1ccccc1C` reads inactive: 7.8%; that for `COc1ccc(OP(C)(=O)Nc2cccc(Br)c2)cc1` (stereo not drawn), inactive: -1.7%. The result for `CN(C)CCOC(=O)C(O)(c1ccccc1)C1CCCCC1` (stereo not drawn) reads inactive: -6.3%. For `COc1ccc(NP(C)(=O)Oc2ccccc2OC)cc1` (stereo not drawn) the value was inactive: 15.8%.

Take `O=[N+]([O-])c1cc([N+](=O)[O-])c(NCC2CCS(=O)(=O)C2)c([N+](=O)[O-])c1` (stereo not drawn): the inhibition was inactive: 7%. For `COc1ccccc1OP(C)(=O)Nc1c(C)cccc1C` (stereo not drawn) the value was inactive: 13.5%; for `CN1CCCCC1COC(=O)C1(O)c2ccccc2CCc2ccccc21` (stereo not drawn), inactive: 8.7%; for `CP(=O)(Nc1ccc(SC(F)(F)F)cc1)Oc1ccccc1` (stereo not drawn), inactive: -19.6%. For `CCCOc1ccc(NP(C)(=O)Oc2ccc(Cl)cc2)cc1` (stereo not drawn) the value was inactive: -25.1%; for `O=[N+]([O-])c1cc([N+](=O)[O-])c(-n2nnc3ccccc32)c([N+](=O)[O-])c1`, inactive: 36%. For `Cc1nc2ccc3ccccc3c2s1.O=[N+]([O-])c1cc([N+](=O)[O-])c(O)c([N+](=O)[O-])c1` the value was inactive: 1.9%.

As to `CCOC(=O)c1ccc(NP(C)(=O)Oc2cc(C)cc(C)c2)cc1` (stereo not drawn), the inhibition was inactive: -2.1%. For `Cc1cc(C)cc(OP(C)(=O)Nc2ccc(C)cc2C)c1` (stereo not drawn) the value was inactive: -6.9%; for `Cc1ccc(C)c(NP(C)(=O)Oc2ccccc2)c1` (stereo not drawn), inactive: -1.7%.

With `CP(=O)(Nc1cccc(Br)c1)Oc1ccccc1` (stereo not drawn), the inhibition is inactive: 21.7%. The result for `Cc1cc(C)cc(OP(C)(=O)Nc2ccccn2)c1` (stereo not drawn) reads inactive: 0%; that for `CC1=NCCc2c1[nH]c1ccccc21.O=[N+]([O-])c1cc([N+](=O)[O-])c(O)c([N+](=O)[O-])c1`, inactive: -6%; that for `O=[N+]([O-])c1ccc2c(c1)C=Nc1ccccc1O2`, inactive: -2%.

As to `CC(C)(C)c1ccc(OP(C)(=O)Nc2ccc(SC(F)(F)F)cc2)cc1` (stereo not drawn), the inhibition is inactive: -5.6%. Consider `Cc1cccc(C)c1OP(C)(N)=O` (stereo not drawn), for which the inhibition is inactive: -10.6%. For `COc1ccccc1OP(C)(=O)Nc1ccc(C)cc1` (stereo not drawn) the value was inactive: -15.2%; for `Cc1ccc(NP(C)(=O)Oc2ccccc2)c(C)c1` (stereo not drawn), inactive: 12%; for `CCOC(=O)c1ccc(NP(C)(=O)Oc2ccccc2)cc1` (stereo not drawn), inactive: -2.6%. Consider `Cc1cc(C)cc(OP(C)(N)=O)c1` (stereo not drawn), for which the inhibition was inactive: 15.6%. For the compound `COc1ccccc1OP(C)(=O)Nc1cc(Cl)ccc1C` (stereo not drawn), the inhibition is inactive: -9.6%. For `COc1ccc(OP(C)(=O)Nc2cccc(F)c2)cc1` (stereo not drawn) the value was inactive: -7.4%; for `CCN(CC)CCCOC(=O)C(O)(c1ccccc1)c1ccccc1`, inactive: -5.8%; for `Cc1cccc(C)c1OP(C)(=O)Nc1ccc(SC(F)(F)F)cc1` (stereo not drawn), inactive: -5%. Regarding `CP(=O)(Oc1ccccc1)OC(c1ccccc1)C(F)(F)F` (stereo not drawn), the inhibition is inactive: -13.5%. The result for `CP(=O)(NC(=O)Nc1ccccc1)Oc1ccccc1` (stereo not drawn) reads inactive: -10.1%; that for `Cc1cc(C)cc(OP(C)(=O)Nc2ccc(SC(F)(F)F)cc2)c1` (stereo not drawn), inactive: -8.4%. For `CCOC(=O)c1ccc(NP(C)(=O)Oc2ccc(OC)cc2)cc1` (stereo not drawn) the value was inactive: 5.9%; for `CCOP(C)(=S)SCC(=O)NC(C)C(=O)O` (stereo not drawn), inactive: 3.7%; for `CP(=O)(Nc1ccccn1)Oc1ccc(Cl)cc1` (stereo not drawn), inactive: 9.6%. The result for `CP(=S)(Nn1cnnc1)Oc1ccccc1` (stereo not drawn) reads inactive: -3.7%; that for `CP(=O)(Nc1ccccc1Br)Oc1ccccc1` (stereo not drawn), inactive: 2.2%. Regarding `COc1ccccc1OP(C)(=O)Nc1ccccc1` (stereo not drawn), the inhibition was inactive: 1.8%.
